For one compound, AC50 results are on record in PubChem BioAssay AID1851 (National Center for Advancing Translational Sciences (NCATS), 2009).

Protein sequences, listed by entry. Tags and fused reporters are not part of them.
UniProt P33261, whole entry, looked up: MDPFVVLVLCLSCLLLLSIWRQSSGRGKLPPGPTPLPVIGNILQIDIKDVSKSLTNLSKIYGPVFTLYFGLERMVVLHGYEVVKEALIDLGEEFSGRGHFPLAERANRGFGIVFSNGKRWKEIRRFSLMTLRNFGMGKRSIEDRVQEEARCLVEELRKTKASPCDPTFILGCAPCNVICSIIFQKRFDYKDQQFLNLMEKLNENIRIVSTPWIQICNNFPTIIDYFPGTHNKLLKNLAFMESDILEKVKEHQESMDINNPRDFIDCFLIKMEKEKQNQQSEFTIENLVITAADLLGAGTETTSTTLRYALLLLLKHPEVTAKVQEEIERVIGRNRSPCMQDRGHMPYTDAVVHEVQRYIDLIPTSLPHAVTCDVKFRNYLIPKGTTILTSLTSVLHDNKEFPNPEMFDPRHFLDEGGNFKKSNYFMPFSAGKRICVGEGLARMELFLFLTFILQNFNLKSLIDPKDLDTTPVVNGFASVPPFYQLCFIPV

Molecules are shown by their SMILES. The entries are a selection whose mix differs from that of the whole data set. Results filed as inconclusive are left out. The source made the active and inactive calls. Calls follow the shape of the dose curve; as a rule, active = well fitted curve in the direction sought with a large enough effect; inconclusive = small, poorly fitted or top-dose-only effect, or effect the other way; inactive = no such curve, though single readings can be large or run the other way.

The assay has as its target Cytochrome P450 2C19 (Homo sapiens) (UniProt P33261). The experiment in a line: Cytochrome panel assay with activity outcomes. The settings on record: recombinant CYP, pro-luciferin dealkylation, luminescence; p450-cyp2c19.
As for `COc1cc(N[C@@H](C)CCCN)c2ncccc2c1`, the concentration at half-maximal activity (AC50) – broadly, the concentration giving half of the maximal activity seen – is active: 3.98 µM.
